In the NIST ThermoML archive (doi:10.1016/j.jct.2007.09.004):

How the values were obtained:
[1] = 101 kPa, Liquid
[2] = relative permittivity at zero frequency (dimensionless); settings: 101.3 kPa, Liquid, Parallel plate capacitor
[3] = xn = mol fraction of the nth substance listed; settings: 101 kPa, Liquid, x2 = 0
[4] = relative permittivity at zero frequency (dimensionless); xn = mol fraction of the nth substance listed; settings: 101 kPa, Liquid, Parallel plate capacitor, x2 = 0

## OCCOCCOCCOCCO [tetraethylene glycol]
[1]; 293.15 K
  mass density: 1123.43 ± 1.9 kg/m3
[1]; 298.15 K
  mass density: 1120.19 ± 1.9 kg/m3
[1]; 303.15 K
  mass density: 1116.94 ± 2 kg/m3
[2]; 293.15 K
  relative permittivity at zero frequency: 20.44 ± 0.04
[2]; 298.15 K
  relative permittivity at zero frequency: 19.91 ± 0.04
[2]; 303.15 K
  relative permittivity at zero frequency: 19.35 ± 0.04

## OCCOCCOCCOCCO [tetraethylene glycol] + CCCOCCO
[3]; 293.15 K
  mass density: 1123.43 ± 1.9 kg/m3
[3]; 298.15 K
  mass density: 1120.19 ± 1.9 kg/m3
[3]; 303.15 K
  mass density: 1116.94 ± 2 kg/m3
[4]; 293.15 K
  relative permittivity at zero frequency: 20.44 ± 0.04
[4]; 298.15 K
  relative permittivity at zero frequency: 19.91 ± 0.04
[4]; 303.15 K
  relative permittivity at zero frequency: 19.35 ± 0.04

± gives the expanded uncertainty stated by the source.
